# According to patent US20250243203A1, “NICOTINAMIDE- AND BENZAMIDE-BASED COMPOUNDS, CONJUGATES, AND COMPOSITIONS AS INHIBITORS OF TRANSLATIONAL- AND TRANSCRIPTIONAL-RELATED KINASES” (PURDUE RESEARCH FOUNDATION, priority 2022, published 2025):
# By UniProt entry, the sequences of proteins in these tests, tags left out. Residues count along the entry.
# UniProt Q9HBH9, whole entry: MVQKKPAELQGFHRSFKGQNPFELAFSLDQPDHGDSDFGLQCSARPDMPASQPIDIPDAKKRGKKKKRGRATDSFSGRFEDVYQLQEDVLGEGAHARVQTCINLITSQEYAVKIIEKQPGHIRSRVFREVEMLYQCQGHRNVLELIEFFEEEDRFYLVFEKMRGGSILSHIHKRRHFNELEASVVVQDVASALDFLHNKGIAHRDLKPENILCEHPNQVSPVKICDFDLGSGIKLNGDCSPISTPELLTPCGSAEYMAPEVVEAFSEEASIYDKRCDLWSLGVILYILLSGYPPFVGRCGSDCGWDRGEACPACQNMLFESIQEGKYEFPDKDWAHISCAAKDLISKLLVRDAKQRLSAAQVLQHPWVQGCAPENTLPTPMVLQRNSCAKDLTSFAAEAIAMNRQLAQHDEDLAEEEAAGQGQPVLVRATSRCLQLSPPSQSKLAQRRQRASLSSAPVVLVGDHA
# UniProt Q12866, 21-999 limits assumed: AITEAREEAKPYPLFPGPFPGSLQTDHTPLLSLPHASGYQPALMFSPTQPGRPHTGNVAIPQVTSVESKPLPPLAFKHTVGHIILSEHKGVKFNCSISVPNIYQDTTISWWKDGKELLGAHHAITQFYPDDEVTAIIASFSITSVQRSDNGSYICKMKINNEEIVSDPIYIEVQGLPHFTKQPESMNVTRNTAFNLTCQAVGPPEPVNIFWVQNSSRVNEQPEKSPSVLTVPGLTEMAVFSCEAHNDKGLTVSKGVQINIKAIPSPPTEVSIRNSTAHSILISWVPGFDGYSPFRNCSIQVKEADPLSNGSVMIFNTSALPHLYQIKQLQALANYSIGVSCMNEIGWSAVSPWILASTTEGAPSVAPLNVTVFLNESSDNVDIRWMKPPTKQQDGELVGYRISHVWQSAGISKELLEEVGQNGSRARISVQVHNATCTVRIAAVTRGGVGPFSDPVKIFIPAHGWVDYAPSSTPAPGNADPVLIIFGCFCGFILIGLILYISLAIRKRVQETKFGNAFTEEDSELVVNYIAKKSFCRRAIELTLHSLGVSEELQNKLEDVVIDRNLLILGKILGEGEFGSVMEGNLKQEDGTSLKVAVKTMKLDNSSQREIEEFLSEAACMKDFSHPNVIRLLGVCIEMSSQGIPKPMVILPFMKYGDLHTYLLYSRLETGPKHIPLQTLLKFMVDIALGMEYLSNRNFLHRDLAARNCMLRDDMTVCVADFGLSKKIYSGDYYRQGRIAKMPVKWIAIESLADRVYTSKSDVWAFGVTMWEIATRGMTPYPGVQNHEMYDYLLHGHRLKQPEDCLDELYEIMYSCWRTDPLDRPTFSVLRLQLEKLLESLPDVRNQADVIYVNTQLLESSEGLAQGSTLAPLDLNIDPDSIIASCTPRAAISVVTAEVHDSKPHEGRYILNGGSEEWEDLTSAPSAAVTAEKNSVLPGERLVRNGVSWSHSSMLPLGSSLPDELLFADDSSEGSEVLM
# UniProt P30530, 26-894 limits assumed: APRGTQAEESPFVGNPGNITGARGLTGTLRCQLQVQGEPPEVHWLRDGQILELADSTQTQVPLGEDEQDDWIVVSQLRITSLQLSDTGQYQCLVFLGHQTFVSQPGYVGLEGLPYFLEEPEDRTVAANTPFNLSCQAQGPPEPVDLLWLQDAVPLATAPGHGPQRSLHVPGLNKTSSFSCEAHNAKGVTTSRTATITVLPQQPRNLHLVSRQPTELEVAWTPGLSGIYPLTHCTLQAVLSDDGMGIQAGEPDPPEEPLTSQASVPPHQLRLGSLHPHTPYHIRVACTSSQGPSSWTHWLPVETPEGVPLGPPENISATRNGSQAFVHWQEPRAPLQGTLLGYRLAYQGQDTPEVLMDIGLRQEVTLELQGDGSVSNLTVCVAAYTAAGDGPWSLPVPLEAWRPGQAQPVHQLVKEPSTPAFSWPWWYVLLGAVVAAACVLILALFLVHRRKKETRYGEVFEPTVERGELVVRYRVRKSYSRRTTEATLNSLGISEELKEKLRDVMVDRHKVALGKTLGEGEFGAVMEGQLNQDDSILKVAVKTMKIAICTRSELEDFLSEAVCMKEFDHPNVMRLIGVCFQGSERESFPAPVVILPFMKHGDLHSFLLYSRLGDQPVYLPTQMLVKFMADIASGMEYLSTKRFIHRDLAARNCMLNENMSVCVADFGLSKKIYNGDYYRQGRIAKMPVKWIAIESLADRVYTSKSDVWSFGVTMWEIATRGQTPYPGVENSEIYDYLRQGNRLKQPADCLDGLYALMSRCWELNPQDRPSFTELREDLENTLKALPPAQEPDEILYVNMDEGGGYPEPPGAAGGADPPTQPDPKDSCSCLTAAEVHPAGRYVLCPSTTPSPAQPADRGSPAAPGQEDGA
# What was measured:
# MNK2 [1] = target: T1, MNK2 (Homo sapiens, UniProt Q9HBH9); assay: MNK2 inhibition, in vitro studies at Reaction Biology Corporation; conditions: 50 nM compound, 10 uM ATP
# [2] = target: MER Proto-Oncogene tyrosine kinase (MERTK) (Homo sapiens, UniProt Q12866); assay: KINOMEscan competition binding assay (Eurofins DiscoverX), MERTK
# [3] = target: AXL receptor tyrosine kinase (AXL) (Homo sapiens, UniProt P30530); assay: KINOMEscan competition binding assay (Eurofins DiscoverX), AXL
# MNK2 [4] = target: T1, MNK2; conditions: read-out: MNK2 IC50; [ATP]=100 μM; cited from earlier work
structure (smiles),measurement,setting,value
CN1CCN(Cc2ccc(NC(=O)c3cncc(C#Cc4cnc5cccnn45)c3)cc2C(F)(F)F)CC1,inhibition of MNK2,MNK2 [1],89%
same,MERTK targeting,[2],not targeted
same,AXL targeting,[3],not targeted
same,IC50,MNK2 [4],9 nM
